Source: PubChem BioAssay (Broad Institute)
Sampled rows, rich in hits. Any-hit rate of the full collection: about 1.3%.
miR-122 sensor – miR-122 Renilla sensor signal increase in Huh7, primary screen, miR-122 inhibitor project, cell-based, single point, plate reader; 0.3% of 340,000 active; Huh7 miR-122 Renilla luciferase sensor, 48 h; neutral wells = 0, positive control = 100; activation (reporter increase), % at 12.5 µM; AID 602342, 2012;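 active = mean replicate activation score at least 90 and every replicate individually at or above 90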;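 note: higher luciferase means less miR-122 activity so hits act as miR-122 inhibitors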
EWS-Fli inh – EWS/Fli-driven NR0B1 reporter inhibitors, primary screen, A673 cells, NR0B1 luciferase, luminescence, MLPCN library. viability-normalised. inhibition, % at 12.6 µM. 0.67% of 350,000 active. AID 651661, 2012;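 active = mean inhibition of at least 50% after viability correction, with every replicate also passing that limit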;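 note: firefly luciferase signal divided by Alamar Blue viability fluorescence both relative to DMSO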
PglD DTNB – C. jejuni PglD acetyltransferase inhibitors, primary screen, biochemical, DTNB colorimetric, single point. UDP-N-acetylbacillosamine N-acetyltransferase PglD (Campylobacter jejuni). purified PglD enzyme, DTNB colorimetric CoA detection. inhibition, % at 12.5 µM. 0.098% of 360,000 active. AID 602405, 2012; in the data active = inhibition above about 16%, passing the limit was not always enough
LGR2 inh – inhibitors of bursicon-induced LGR2 CRE-luciferase signal, primary screen, cell-based, HEK293, CRE-luciferase reporter, bursicon stimulation | bursicon-stimulated, 4 h | 0.35% of 380,000 active | AID 720647, 2013 | inhibition, % at 9.99 µM;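 active = drop in luminescence signal, shown as inhibition above about 50% in the replicate tests, limit read from the data, passing the limit was not always enough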;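 note: agonist challenge used bursicon conditioned medium at about half maximal strength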
UUG fidelity – modulators of start codon recognition fidelity in yeast. S. cerevisiae UUG-firefly luciferase reporter, luminescence/redox ratio. activity score, % at 18.7 µM. 0.13% of 350,000 active. AID 602363;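 active = replicate mean at a twofold rise or more, about +100% in these data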;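 also: firefly luciferase made from a UUG start codon reports start codon fidelity; reporter light over untreated wells divided by growth signal over untreated wells; some hits fall short of that in this replicate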
F508del corr – F508del CFTR correction, initial screen, CFBE line, single point; CFBE cells, YFP halide quenching; stimulated with forskolin plus potentiator P3; % fluorescence drop versus neutral controls; activity (quench increase), % at 7.58 µM; 0.36% of 350,000 active; AID 720511, 2013;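 active = mean added fluorescence quench of at least 8% versus neutral control, with both replicates also reaching 8%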;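 note: cells transiently co-express mutant CFTR-F508del with the halide-sensitive YFP; corrector assay measuring rescue of mutant channel to the surface after 24 h compound exposure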
* hit, by the source's call; / = no result given.

SMILES	miR-122 sensor	EWS-Fli inh	PglD DTNB	LGR2 inh	UUG fidelity	F508del corr
CCS(=O)(=O)N1Cc2ccccc2CC1C(=O)OCC(=O)Nc1ccc(SC(F)F)cc1 (configuration not stated)	0	/	-4	/	-3	/
CCN(CC)C(=O)c1cccc(NC(=O)CC23CC4CC(CC(C4)C2)C3)c1	11	4	0	-7	15	-2
Cc1cc(Br)cc(/C=N/NC(=O)c2ccc3c(c2)OCO3)c1O	/	-46	3	-11	-4	9.3*
O=C(N/N=C/c1cc(Br)cc(Cl)c1O)c1ccc2c(c1)OCO2	-2	-5	0	/	-30	12*
O=C(O)COc1c(Cl)cc(/C=C2/NC(=O)NC2=O)cc1Br	/	-2	/	8	/	6
CCC(=O)c1cc(F)ccc1OCC(=O)N1CCN(c2ccc(F)cc2)CC1	3	14	/	-17	/	4
CC(=O)N1CCc2cc(Br)cc(S(=O)(=O)NCc3ccc(Cl)cc3)c21	110*	-13	1	2	-4	1
CCOC(=O)c1[nH]c(C)c(C(=O)OCC(=O)NCc2ccc(Cl)cc2)c1C	6	-5	-1	-19	-11	-4
COc1ccc(OCC(=O)NCCCNC(=O)COc2ccc(OC)cc2)cc1	-3	-8	5	1	0	-4
Cc1cc(S(=O)(=O)NCC2CC2)c(Cl)cc1Cl	105*	2	0	-2	-5	0

Structures above that contain bromine, in the order listed:
SMILES	miR-122 sensor	EWS-Fli inh	PglD DTNB	LGR2 inh	UUG fidelity	F508del corr
Cc1cc(Br)cc(/C=N/NC(=O)c2ccc3c(c2)OCO3)c1O	/	-46	3	-11	-4	9.3*
O=C(N/N=C/c1cc(Br)cc(Cl)c1O)c1ccc2c(c1)OCO2	-2	-5	0	/	-30	12*
O=C(O)COc1c(Cl)cc(/C=C2/NC(=O)NC2=O)cc1Br	/	-2	/	8	/	6
CC(=O)N1CCc2cc(Br)cc(S(=O)(=O)NCc3ccc(Cl)cc3)c21	110*	-13	1	2	-4	1

Next section.
SMILES	miR-122 sensor	EWS-Fli inh	PglD DTNB	LGR2 inh	UUG fidelity	F508del corr
O=S(=O)(NCC1CC1)c1cc(Cl)cc(Cl)c1	/	-6	-13	-5	-16	0
Cc1ccc2ccccc2c1C(O)c1ncc(-c2ccccc2F)[nH]1 (configuration not stated)	175*	9	-5	25	-19	-2
Cc1cccc(C)c1C(O)c1ncc(-c2ccccc2F)[nH]1 (configuration not stated)	11	-7	0	-4	-16	-2
Cc1cccc(C(O)c2ncc(-c3ccccc3F)[nH]2)c1C (configuration not stated)	96*	-7	3	1	6	-2
Cc1cc(F)ccc1C(O)c1ncc(-c2ccccc2F)[nH]1 (configuration not stated)	112*	-14	-3	-22	-35	-1
O=S(=O)(Nc1ccc2ccccc2c1)c1ccccc1	170*	/	/	-29	/	/
O=S(=O)(Nc1ccc(NS(=O)(=O)c2ccccc2)cc1)c1ccccc1	/	34	/	10	/	-2
COc1ccc(C)cc1NS(=O)(=O)c1ccc(NS(=O)(=O)c2ccc(NC(C)=O)cc2)cc1	-1	11	-2	17	18	-2
COc1ccc(S(=O)(=O)Nc2cc(C)ccc2OC)cc1C	114*	/	-5	/	-3	/
CS(=O)(=O)c1ccc(NS(=O)(=O)c2ccc3ccccc3c2)cc1	55	-3	5	4	4	4
Cc1cc(S(=O)(=O)Nc2ccc3ccccc3c2)c(C)s1	540*	31	2	19	11	3
Cc1ccc(S(=O)(=O)Nc2ccc3ccccc3c2)cc1	118*	10	-1	-5	7	1
Cc1cc(S(=O)(=O)Nc2cccnc2)c(C)s1	10	/	-9	/	-1	/
CCOC(=O)C(C(=O)OCC)=C1OC(=O)c2ccccc21	-3	/	-3	/	5	/
Cc1ccc(S(=O)(=O)Nc2ccc3c(c2)CCC3)cc1	167*	/	-1	9	10	/
COc1ccc(S(=O)(=O)Nc2ccc3ccccc3c2)cc1C	109*	/	0	18	7	/
COC(=O)c1ccc(C)c(NS(=O)(=O)c2ccc(OC)c(OC)c2)c1	131*	/	2	/	-11	/
Cc1cc(S(=O)(=O)Nc2cc(C)c(O)c(C)c2)c(C)s1	196*	/	2	/	-2	/
O=C(NC(=S)NCc1ccccc1)c1ccccc1Br	-5	-37	3	-14	-24	-2
O=C1C=CC2(C=C1)O[C@H](Cc1ccccc1)[C@@H](Cc1ccccc1)O2	-21	49	/	98*	/	-6
